For this experiment, the target named is recombinant form of Glutaminase 1 (GAC) (Homo sapiens, UniProt O94925). Briefly: Recombinant Enzyme Assay - Time Dependence (60 min preincubation). The experiment is classed as biochemical. The following applies: read-out: GAC Delta N2 IC50 60 min preinc.

Sequences of proteins named here, by UniProt entry; tags and fusion partners are left off. Residues count along the entry.
UniProt O94925, 137-598 isoform 3 limits assumed: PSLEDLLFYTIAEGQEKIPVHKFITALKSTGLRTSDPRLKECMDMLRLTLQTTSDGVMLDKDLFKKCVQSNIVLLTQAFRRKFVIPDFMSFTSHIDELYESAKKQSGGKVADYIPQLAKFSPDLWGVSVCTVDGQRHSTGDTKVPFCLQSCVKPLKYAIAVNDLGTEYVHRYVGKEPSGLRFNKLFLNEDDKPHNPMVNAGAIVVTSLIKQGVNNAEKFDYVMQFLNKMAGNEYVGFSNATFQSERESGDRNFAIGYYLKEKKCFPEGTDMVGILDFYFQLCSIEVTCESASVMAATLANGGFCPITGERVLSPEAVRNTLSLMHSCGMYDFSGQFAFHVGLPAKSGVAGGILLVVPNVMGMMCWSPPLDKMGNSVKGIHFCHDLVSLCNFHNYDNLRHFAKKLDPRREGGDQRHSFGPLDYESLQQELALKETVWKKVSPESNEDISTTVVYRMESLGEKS

As to `CCCC(=O)OCN(C(=O)Cc1ccccc1)c1nnc(CCCCc2ccc(NC(=O)Cc3cccc(OC(F)(F)F)c3)nn2)s1`, the IC50 was greater than 20 µM.

These data come from patent publication US20150258082A1, “COMBINATION THERAPY WITH GLUTAMINASE INHIBITORS” (priority 2014, published 2015).
